Test results: patent US7192728B2, “Screening assays for agents that alter inhibitor of apoptosis (IAP) protein regulation of caspase activity” (The Burnham Institute, priority 1997, dated 2007)

Tests used:
[1] = system: DEVD-pNA hydrolysis activity in 293 cell cytosolic extracts; assay: Cytochrome c/dATP-induced caspase activation (DEVD hydrolysis) in 293 cell cytosolic extracts; assay type: biochemical, human; details: 3 μM; extracts activated 30 min with cytochrome c and dATP
Procedure: The cytosol fraction of cell extracts was prepared from 293 embryonic kidney cells or Jurkat T cells, essentially as described (Liu et al., supra, 1996), but with modifications as indicated below. Cells were washed with ice cold buffer A (20 mM Hepes (pH 7.5), 10 mM KCl, 1.5 mM MgCl2, 1 mM EDTA, 1 mM DTT and 0.1 mM PMSF) and suspended in 1 vol buffer A, then incubated on ice for 20 min. 293 cells were disrupted by passage 15× through a 26 gauge needle and Jurkat T cells were disrupted by dounce homogenization in 2 ml using 15 strokes with a pestle B. Cell extracts (10–15 mg total protein/ml) were clarified by centrifugation at 16,000×g for 30 min, then the NaCl concentration was increased by 50 mM. Cytosolic fractions were used immediately or stored frozen at −80° C.
Caspase activity was assayed by release of either 7-amino-4-trifluoromethyl-coumarin (AFC) or p-nitroanilide (pNA) from benzylyoxycarbonyl-DEVD (SEQ ID NO: 2) or benzylyoxycarbonyl-YVAD (SEQ ID NO: 3) synthetic peptides using a Molecular Devices Spectromax 340 for AFC labeled peptides or Perkin/Elmer LS50B for pNA labeled peptides (see Example II; see, also, Zhou et al., supra, 1997). […] DEVD-pNA hydrolysis was measured at various times and multiple experiments were performed using several different GST-XIAP preparations.

[2] = system: 293T cells; assay: Caspase-9-induced pro-caspase-3 processing and apoptosis in transfected 293T cells; assay type: cell-based, human; details: co-transfection with FLAG-caspase-9
Procedure: (§1) Co-immunoprecipitations and immunoblot assays were performed as follows. Human embryonic kidney 293T cells were maintained in DMEM supplemented with 10% fetal bovine serum, 1 mM L-glutamine and antibiotics. 2×10^6 cells were plated in 10 mm dishes and 24 hr later transiently co-transfected with 2 μg of either pFLAG-CMV2-caspase-9 or pCMV-Fas and 6–8 μg of either pcDNA3myc-XIAP, pcDNA3myc-c-IAP-1, pcDNA3myc-c-IAP-2, or pcDNA3myc-control plasmid DNA by a calcium phosphate precipitation method (Roy et al., supra, 1997). […] Immunoprecipitates were washed 3 times with lysis buffer, and bound proteins separated by SDS-PAGE and analyzed by immunoblotting using antibodies specific for the FLAG epitope (Kodak, Inc.), myc-epitope, or caspase-3.
(§2) Cell lysates were prepared 16 hr later for either (A) immunoblot analysis of caspase-3, or (B) DEVD-AFC. […] Relative apoptosis was scored at 1.5–2 days after transfection by DAPI staining (mean±SE; n=3) for 293 T cells co-transfected with pGFP and FLAG-control or FLAG-pro-caspase-9, and either pcDNA3-myc-tag control plasmid, pcDNA3-myc-XIAP, pcDNA3-myc-IAP-1 or pcDNA3-myc-c-IAP-2. […] Lysates from the same cell (50 μg per lane) were also analyzed by immunoblotting using anti-FLAG and anti-myc antibodies to verify expression of […].

[3] = system: pro-caspase-9; assay: Cytochrome c-induced processing of pro-caspase-9 in 293 cytosolic extracts; assay type: biochemical, human; details: 0.2 μM GST-IAP; 30 min at 30° C.
Procedure: For the results shown in FIG. 4, in vitro translated ^35S-labeled pro-caspase-9 was added to cytosolic extracts from 293 cells, and subsequently incubated for 30 min at 30° C. with (lanes 2–6) or without (lane 1) 10 μM cytochrome c and 1 mM dATP in the presence or absence of 0.2 μM GST-IAP proteins or a GST control protein. Cytochrome c induced processing of pro-caspase-9 was subsequently monitored by SDS-PAGE and autoradiography.
Pro-caspase-9 inhibition by Ac-DEVD-fmk, zVAD-fmk and XIAP was compared as follows. In vitro translated ^35S-labeled pro-caspase-9 was added to cytosolic extracts from 293 cells containing 10 μM cytochrome c and 1 mM dATP. Samples were incubated at 30° C. for 30 minutes in the presence of the indicated concentrations of inhibitors. Proteins were separated on SDS-PAGE gels, dried directly, and exposed to film.

[4] = system: pro-caspase-9; assay: Co-immunoprecipitation of pro-caspase-9 with myc-tagged IAPs in 293T cells; assay type: binding, human; details: anti-myc immunoprecipitation, anti-FLAG blot
Procedure: as §1, §2

c-IAP-1: cellular IAP protein c-IAP-1/HIAP-2/hMIHB, recombinant GST fusion or myc-tagged
DEVD hydrolysis in activated 293 cell cytosolic extracts (in words) [1]: inhibited DEVD hydrolysis
caspase-9-induced cleavage of pro-caspase-3 and Ac-DEVD-AFC cleavage activity (in words) [2]: markedly reduced
number of apoptotic 293T cells (in words) ([2]; DAPI staining): a reduction in the number of apoptotic 293T cells
cytochrome c-induced pro-caspase-9 processing (in words) [3]: inhibited pro-caspase-9 processing, albeit to a lesser extent
co-immunoprecipitation of the zymogen form of caspase-9 (in words) [4]: co-immunoprecipitated
